Each block holds one molecule with its values, some of them ahead of it.
Key:
[1] = target: T1, dopamine D2 receptors (Homo sapiens (Human), UniProt P14416); assay: Dopamine D2 receptor β-arrestin2 BRET (recruitment); type: cell-based; details: for Emax: relative to endogenous ligand dopamine, read-out: β-arrestin2 BRET Emax % ± SEM
[2] = target: T1, dopamine D2 receptors; assay: Dopamine D2 receptor Gαi1 BRET (G protein trimer dissociation); type: cell-based
[3] = target: T2, 5-hydroxytryptamine 1A (5-HT1A) receptors (Homo sapiens (Human), UniProt P08908); assay: 5-HT1A receptor Gαi1 BRET (G protein trimer dissociation); type: cell-based; details: relative to endogenous ligand 5-hydroxytryptamine
[4] = target: T2, 5-hydroxytryptamine 1A (5-HT1A) receptors; assay: 5-HT1A receptor β-arrestin2 BRET (recruitment); type: cell-based; details: relative to endogenous ligand 5-hydroxytryptamine
[5] = target: T1, dopamine D2 receptors; assay: Dopamine D2 receptor radioligand competition binding assay ([3H]-Methylspiperone); details: [3H]-Methylspiperone 0.3 to 0.5 nM, 293T membranes; read-out: Affinity Ki

Sequences of proteins named here, by UniProt entry; tags and fusion partners are left off.
UniProt P14416, whole entry: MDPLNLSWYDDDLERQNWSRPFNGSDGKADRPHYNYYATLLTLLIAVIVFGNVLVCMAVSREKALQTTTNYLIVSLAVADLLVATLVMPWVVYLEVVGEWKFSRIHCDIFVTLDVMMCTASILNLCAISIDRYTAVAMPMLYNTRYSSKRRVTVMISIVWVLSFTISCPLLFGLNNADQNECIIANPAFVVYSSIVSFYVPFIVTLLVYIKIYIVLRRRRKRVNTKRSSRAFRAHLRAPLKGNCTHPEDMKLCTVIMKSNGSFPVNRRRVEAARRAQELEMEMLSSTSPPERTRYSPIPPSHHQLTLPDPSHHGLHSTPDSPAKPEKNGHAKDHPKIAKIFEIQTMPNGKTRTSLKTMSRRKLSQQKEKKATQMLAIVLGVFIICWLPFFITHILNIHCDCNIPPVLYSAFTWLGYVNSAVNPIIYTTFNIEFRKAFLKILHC
UniProt P08908, whole entry: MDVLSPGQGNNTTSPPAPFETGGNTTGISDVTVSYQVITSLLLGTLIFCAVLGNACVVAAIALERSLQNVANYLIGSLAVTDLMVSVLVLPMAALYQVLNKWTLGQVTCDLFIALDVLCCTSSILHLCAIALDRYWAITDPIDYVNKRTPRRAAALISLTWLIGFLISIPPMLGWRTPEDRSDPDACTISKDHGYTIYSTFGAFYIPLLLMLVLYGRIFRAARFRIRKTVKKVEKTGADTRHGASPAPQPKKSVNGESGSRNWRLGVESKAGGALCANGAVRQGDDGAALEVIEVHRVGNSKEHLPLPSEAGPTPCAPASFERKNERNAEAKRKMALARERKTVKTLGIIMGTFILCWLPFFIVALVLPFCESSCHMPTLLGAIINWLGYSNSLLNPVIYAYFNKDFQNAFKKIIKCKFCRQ

SMILES: COc1cccc2c3c(oc12)CN(CCCCOc1ccc2ccc(=O)[nH]c2c1)CC3 [I-A1, 7-(4-(8-methoxy-3,4-dihydrobenzofuro[2,3-c]pyridin-2(1H)-yl)butoxy)quinolin-2(1H)-one]
- Emax [1]: 81%

SMILES: COc1cccc2c3c(oc12)CN(CC[C@H]1CC[C@H](NC(C)=O)CC1)CC3 [I-A11, N-(trans-4-(2-(8-methoxy-3,4-dihydrobenzofuro[2,3-c]pyridin-2(1H)-yl)ethyl)cyclohexyl)acetamide]
- EC50 ([2]; D2 receptor, unit printed only in Cariprazine cell): 9.34 nM
- Emax ([2]; read-out: Gαi1 BRET Emax % ± SEM): 48%
- EC50 ([1]; read-out: β-arrestin2 BRET pEC50 ± SEM (converted)): 3.55 nM
- EC50 ([1]; unit printed only in Cariprazine cell, read-out: β-arrestin2 BRET EC50): 3.8 nM

- Emax [3]: 108%
- Emax [4]: 101%
SMILES: COc1cccc2c3c(oc12)CN(CCNC(=O)C1CCOCC1)CC3 [I-A14, N-(2-(8-methoxy-3,4-dihydrobenzofuro[2,3-c]pyridin-2(1H)-yl)ethyl)tetrahydro-2H-pyran-4-carboxamide]

SMILES: CCOc1cccc2c3c(oc12)CN(CCCCOc1ccc2ccc(=O)[nH]c2c1)CC3 [I-A16, 7-(4-(8-ethoxy-3,4-dihydrobenzofuro[2,3-c]pyridin-2(1H)-yl)butoxy)quinolin-2(1H)-one]
- Emax [1]: 31%

SMILES: CC(C)Oc1cccc2c3c(oc12)CN(CCCCOc1ccc2ccc(=O)[nH]c2c1)CC3 [I-A18, 7-(4-(8-isopropoxy-3,4-dihydrobenzofuro[2,3-c]pyridin-2(1H)-yl)butoxy)quinolin-2(1H)-one]
- Ki [5]: 88.8 nM

- Emax [3]: 75.2%
- Emax [4]: 41.8%
SMILES: COc1cccc2c3c(oc12)CN(CCCn1ncc(=O)n(C)c1=O)CC3 [I-A23, 2-(3-(8-methoxy-3,4-dihydrobenzofuro[2,3-c]pyridin-2(1H)-yl)propyl)-4-methyl-1,2,4-triazine-3,5(2H,4H)-dione]

- Emax [3]: 107%
SMILES: COc1cccc2c3c(oc12)CN(CCn1c(=O)[nH]c2ccccc21)CC3 [I-A24, 1-(2-(-methoxy-3,4-dihydrobenzofuro[2,3-c]pyridin-2(1H)-yl)ethyl)-1,3-dihydro-2H-benzo[d]imidazol-2-one]
